These results are taken from patent US12329747B2, “Use of lipophilic beta-lactam antibiotics and carboxylate esters for the treatment of bacterial infections within citrus and other plant species” (priority 2019, dated 2025).

Series [1] can be described thus: Dissolution in neem oil (horticultural oil). Conditions: 1:1 mixture with horticultural oil.
Series [2] is described as follows: Measured log Kow of product compounds. The settings on record: values themselves only shown in FIG. 2B to 2F.

As for `COC(=O)[C@@H]1N2C(=O)[C@@H](NC(=O)Cc3ccccc3)[C@H]2SC1(C)C` [product compound 1, Methyl(2S,5R,6R)-3,3-dimethyl-7-oxo-6-(2-phenylacetamido)-4-thia-1-azabicyclo[3.2.0]heptane-2-carboxylate], the “dissolution in neem oil” value in series [1] is recorded as “formed more of an emulsion than a solution”.
As for `CCCCCCCCCC(=O)OCOC(=O)[C@@H]1N2C(=O)[C@@H](NC(=O)Cc3ccccc3)[C@H]2SC1(C)C` [product compound 5, (Decanoyloxy)methyl (2S,5R,6R)-3,3-dimethyl-7-oxo-6-(2-phenylacetamido)-4-thia-1-azabicyclo[3.2.0]heptane-2-carboxylate], the “log Kow” value in series [2] is on record as “close to that of the PRIOR ART Spinosyn A”.
Same read-out and setting: as for `CCCCCCCCCC(=O)OCOC(=O)[C@@H]1N2C(=O)[C@@H](NC(=O)COc3ccccc3)[C@H]2SC1(C)C` [product compound 6, (Decanoyloxy)methyl(2S,5R,6R)-3,3-dimethyl-7-oxo-6-(2-phenoxyacetamido)-4-thia-1-azabicyclo[3.2.0]heptane-2-carboxylate], the entry is “close to that of the PRIOR ART Spinosyn A”.
With `COC(=O)[C@@H]1N2C(=O)[C@@H](NC(=O)COc3ccccc3)[C@H]2SC1(C)C` [product compound 2, Methyl(2S,5R,6R)-3,3-dimethyl-7-oxo-6-(2-phenoxyacetamido)-4-thia-1-azabicyclo[3.2.0]heptane-2-carboxylate], the “dissolution in neem oil” value in series [1] is listed as “formed more of an emulsion than a solution”.
